SMILES strings stand for the structures. Values joined by “and” are separate entries in the source; they are usually repeats but may differ in a detail not shown here. Equal entries are not always repeated. The list shows a part of the results, in another mix than the full data. Records with an inconclusive call do not appear. Active and inactive are the calls of the source. Calls follow the shape of the dose curve; as a rule, active = well fitted cell-killing curve with a large enough effect in the repeat runs; inconclusive = weak or mixed curves, or effect the other way; inactive = flat fitted curve, though single readings scatter.

The values that follow come from PubChem BioAssay (Tox21).
% is scaled to controls: 0 for no effect and ±100 for the full control effect.

This assay can be described thus: qHTS RealTime-Glo MT Cell Viability Assay in HEK293 cells - 16 hour (AID 1224872). Also: top concentration of the series differs between compounds; nearly all actives have a fitted effect of over 50% in size. To be noted: RealTime-Glo luminescence; at 76.8 µM (top of the series) unless noted. From the text:
National Center for Advancing Translational Sciences [NCATS]
NIH Chemical Genomics Center [NCGC]
U.S. Environmental Protection Agency [EPA]
National Institutes of Environmental Health Sciences [NIEHS]
National Toxicology Program [NTP]
U.S. Food and Drug Administration [FDA]
Measure of cell viability is critical in the cell-base assay. Analysis of cell viability is necessary for the characterization of cell responses to cytotoxic drugs and environmental stress. A RealTime-Glo MT Cell Viability Assay to monitor cell viability in real time of continues cell culture during 40 hours of compound treatment was used to screen Tox21 10K library compounds in Hek293 cells. The RealTime-Glo MT Cell Viability Assay is a nonlytic, homogeneous, bioluminescent method to measure cell viability in real time using a simple, plate-based method. The assay involves adding NanoLuc luciferase and a cell-permeant prosubstrate to cells in culture. Viable cells reduce the proprietary prosubstrate to generate a substrate for NanoLuc luciferase. This substrate diffuses from cells into the surrounding culture medium, where it is rapidly used by the NanoLuc Enzyme to produce a luminescent signal. The signal correlates with the number of viable cells, making the assay well suited for cytotoxicity studies.
Tox21 Assay Protocol Summary:
The mixture of Hek293 cell suspension and reagents were dispensed at 600cells/6 ul/well in 1536-well tissue culture treated black solid bottom plates using a Multidrop dispenser. After the assay plates were incubated at a 37 C/5% CO2 incubator for 5 hours, 23 nL of compounds dissolved in DMSO, positive and negative controls was transferred to the assay plate by a pintool work station. The plates were incubated at 37 C for 40 hours. The luminescence intensity were measured at 0h, 8h, 16h, 24h, 32h and 40h time points using ViewLux plate reader during compound treatment.
On the technique in general: In qHTS, concentration-response curves come from the screen itself.
For the compound `CP(=O)(O)OCCC[Si](O)(O)O`, the activity change, negative = cytotoxicity is inactive: -0.816%.

As to `Cc1c([N+](=O)[O-])cccc1[N+](=O)[O-]`, the activity change, negative = cytotoxicity is inactive: -2.66% and inactive: 10.1%.

In the case of `COP(C)(=O)OC`, the activity change, negative = cytotoxicity was inactive: 4.73% and inactive: 3.15%. Consider `N#CBr`, for which the activity change, negative = cytotoxicity was inactive: 11.4%. For `COc1ccc([N+](=O)[O-])cc1[N+](=O)[O-]` the value was inactive: 5.11%. On to `Nc1cc([N+](=O)[O-])cc([N+](=O)[O-])c1O`, for which the activity change, negative = cytotoxicity is inactive: -0.332%. For the compound `O=[N+]([O-])[O-].[NH4+]`, the activity change, negative = cytotoxicity was inactive: 5.03% and inactive: 9.95%. Regarding `[NH4+].[O-][Cl+3]([O-])([O-])[O-]`, the activity change, negative = cytotoxicity was inactive: -2.29% and inactive: -0.432%. For `O=[N+]([O-])OCC(CO[N+](=O)[O-])(CO[N+](=O)[O-])CO[N+](=O)[O-]` the value was inactive: -2.44%; for `N=C(N)N[N+](=O)[O-]`, inactive: -9.89%; for `CCN(CC)CCCl`, inactive: 3.34%. Turning to `Cc1ccc([N+](=O)[O-])cc1[N+](=O)[O-]`, the activity change, negative = cytotoxicity was inactive: 1.06% and inactive: -1.9%.

On to `CC(C)OP(C)(=O)OC(C)C`, for which the activity change, negative = cytotoxicity was inactive: -19.2% and inactive: 17%.

As to `CC(C)N(CCO)C(C)C`, the activity change, negative = cytotoxicity is inactive: -2.59%. `CN(C)CCCl`: the activity change, negative = cytotoxicity is inactive: -0.141%. The same measure for `C/C1=C2N=C(/C=C3N=C(/C(C)=C4\[N-][C@@](C)([C@@H]5N=C1[C@](C)(CCC(=O)NC[C@@H](C)OP(=O)([O-])O[C@H]1[C@@H](O)[C@@H](n6cnc7cc(C)c(C)cc76)O[C@@H]1CO)[C@H]5CC(N)=O)[C@@](C)(CC(N)=O)[C@@H]4CCC(N)=O)[C@@](C)(CC(N)=O)[C@@H]\3CCC(N)=O)C(C)(C)[C@@H]/2CCC(N)=O.[C-]#N.[Co+3]`: inactive: -11.5% [at 35.3 µM]. On to `CCOP(=O)(CC)Oc1ccc([N+](=O)[O-])cc1` (stereo not drawn), for which the activity change, negative = cytotoxicity is inactive: -0.936% [at 35.3 µM]. As for `CCOP(=O)(CC)OCC`, the activity change, negative = cytotoxicity is inactive: 4.35%.
